## Measured affinities in a library of Ab-14 heavy chain variants

Data: MIT Lincoln Laboratory AlphaSeq set, Li et al. 2023, doi:10.1038/s41467-023-39022-2, as distributed in FLAb.

Target peptide (SARS-CoV-2 spike, HR2 region): PDVDLGDISGINAS

Parent scFv Ab-14: VH joined to VL by a (GGGGS)3 linker. Changes lie in the heavy chain CDRs alone.
VH: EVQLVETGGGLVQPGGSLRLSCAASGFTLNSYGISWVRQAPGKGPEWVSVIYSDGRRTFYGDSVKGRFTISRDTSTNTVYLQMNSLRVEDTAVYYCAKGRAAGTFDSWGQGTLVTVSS
VL: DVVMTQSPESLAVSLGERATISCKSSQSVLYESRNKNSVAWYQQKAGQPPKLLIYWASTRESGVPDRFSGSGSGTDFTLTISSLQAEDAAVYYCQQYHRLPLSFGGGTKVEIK

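This is the validation round: designs drawn from the data on random variants, tested in the same kind of assay. Several design methods are mixed in this list. The assay is AlphaSeq: two haploid yeast populations carry antibody and antigen on their surface. Mating (16 h, 30 °C) was followed by selection of diploids and sequencing of their barcodes. A regression on co-assayed BCL2-family reference pairs converts the normalised counts of each replicate to an apparent Kd. Each pool was mated in six replicate cultures.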

Variants are written as CDR1, CDR2 and CDR3 of the heavy chain (limits as in the source). Parent: GFTLNSYGIS, VIYSDGRRTFYGDSVK, GRAAGTFDS.
Numbers give log10(Kd / nM), so 0 is 1 nM and 3 is 1 µM. Smaller is tighter.
Replicates are averaged; those with no signal do not enter the mean.
A pair that was not seen in any replicate is written "nd"; this usually means weak binding, but a binder can also be missed.
The range of this assay differs from that of the first round, and the authors advise against merging the two.
As a blank, each scFv also met three strains without target: over all heavy chain designs, 1% of these pairings were detected, typically at 2.08 and seldom below 0.84. For each scFv, signals with the empty controls are counted beside the result.
The parent sequence was in this pool as ten entries: three were never detected, three once, and four in most replicates, with averages from 0.34 to 2.37.
In the paper, a design with two or fewer of six values counts as a poor binder.

CDR-H1	CDR-H2	CDR-H3	mean log10 Kd (nM)	replicates with signal	signal with controls
GFTLNSYGIS	VIKSDGRRTFYSDSVK	GRAGGTFDS	3.02	1 of 6	0 of 18
GFDLNEYGIS	VIYADGRRTFYADSVK	GTAGGTFDI	0.05	6 of 6	0 of 18
GFDLDEYGIS	VIYADGMRTAYADNVK	GNVAGTFDL	-0.80	6 of 6	0 of 18
GFDLNEYGIS	VIYADGRRTSYIDSVK	GEQAGTFDS	0.43	4 of 6	0 of 18
GNTLNEYGIS	VIYSDGRRTFYTDSVK	GRWAGTFDS	1.92	6 of 6	0 of 18
GFDLDEYGIS	VIYADGKRTAYSDSVK	GQNAGTFDV	-0.58	6 of 6	0 of 18
GFTLNQYGIS	VIYSDDRRTFYSDSVK	GRAAGFFDS	nd	0 of 6	0 of 18
GFDLNEYGIS	VIYADGMRTAYVDSVK	GNNAGTFDT	-0.33	6 of 6	0 of 18
GFTLNSYGIS	VIYSDGRRTFYSDSVK	GLVGGTFDS	1.01	6 of 6	0 of 18
GFSLNEYGIS	VIYSDGRRTFYGDSVK	GRTAGTFES	-0.09	6 of 6	0 of 18
GFSLNNYGIS	VIYSDGKRTFYGDSVK	GQTAGTFDS	0.08	6 of 6	0 of 18
GFDLDEYGIS	VIYADGRRTFYADSVK	GEHAGTFDT	-0.17	6 of 6	0 of 18
GFELNSYGIS	VIYSDGRRTFYDDSVK	GTLAGTFDS	-0.39	6 of 6	0 of 18
GFTINSYGIS	VIYSDGRREAYIDSVK	GRAAGTFDI	3.06	3 of 6	0 of 18
GFTLNEYGIS	VIYSDGRRTFYHDSVK	GRAAGTFMS	nd	0 of 6	0 of 18
GFDLNEYGIS	VIYADGRRTAYIDSVK	GQNAGTFDV	0.36	6 of 6	0 of 18
GFTLNSYGIS	VIYSDGRRTFYGDSVK	GRFADTDVS	nd	0 of 6	0 of 18
GFELNSYGIS	VIYSDGRRTFYDDSVK	GSTAGTFDS	-0.22	6 of 6	1 of 18
GFDLNEYGIS	VIYADGSRTFYSDSVK	GQTAGTFDI	-0.35	6 of 6	0 of 18
GFDLNEYGIS	VIYADGMRTAYVDSVK	GQNAGTFDM	-0.46	6 of 6	1 of 18
GFDLNEYGIS	VIYADGRRTFYSDSVK	GNVAGTFDA	-0.63	6 of 6	0 of 18
GFDLNEYGIS	VIYADGMRTAYADDVK	GGNAGTFDL	-0.07	6 of 6	0 of 18
GFTLNSYGIS	VIYSDGRRTFYQDRTK	GRAAGTFDS	nd	0 of 6	0 of 18
GFTLNSYGIS	VIYSDGRRTFYSDSVK	GHEAGTFDS	0.54	6 of 6	0 of 18
GFDLNSYGIS	VIYSDGRRTFYVDEVK	GRQAGTFDS	0.13	6 of 6	0 of 18
GFTLNEYGIS	VIYSDGRRTFYTDSVK	GEAAGTFDS	0.31	6 of 6	0 of 18
KFTLNMYGIS	VIYSDGRRTFYGDSVK	GREAGTFDS	1.96	6 of 6	0 of 18
GFDLEEYGIS	VIYADGMRNAYTANVK	GGKSEDFFM	nd	0 of 6	0 of 18
GFDLNEYGIS	VIYADGRRTQYIDSVK	GNEAGTFDT	-0.39	6 of 6	0 of 18
GFYLNSYGIS	VIYSDGRRTFYGDSVK	GQTAGTFDV	0.68	2 of 6	0 of 18
GFDLNEYGIS	VIYADGRRTAYLDSVK	GQNAGTFDT	-0.62	6 of 6	0 of 18
GFELNEYGIS	VIYSDGRRTFYDDSVK	GQAAGTFDS	0.94	6 of 6	0 of 18
GFDLNEYGIS	VIYADGRRTFYIDSVK	GETAGTFDM	0.41	6 of 6	0 of 18
GFDLNEYGIS	VIYADGRRTFYADSVK	GEFAGTFDI	-0.33	6 of 6	1 of 18
GFSLNEYGIS	VIYSDGRRTFYGDWVK	GRTAGTFDS	0.82	6 of 6	0 of 18
GFDLNEYGIS	VIYADGKRMAYSNKVK	GLMAGTMID	nd	0 of 6	0 of 18
GFDLNEYGIS	VIYADGKRTSYKDSVK	GEAAGTFDV	-0.63	6 of 6	0 of 18
GFELNSYGIS	VIYSDGRRTAYSDSVK	GRAAGTFDS	0.32	6 of 6	0 of 18
GFDLQEYGVS	VIYADGRRASYASKFK	GNHSGYLDK	nd	0 of 6	0 of 18
GFTLNSYGIS	VIYSDGRRTFYSDSVD	GQAAGTFDL	0.31	6 of 6	0 of 18
GFTLNEYGIS	VIYSDGRRTWYTDSVK	GRAAGTFDS	1.64	2 of 6	0 of 18
GFKLDEYGIS	VIYADGKRTAYADHVK	GGGTTDRGI	nd	0 of 6	0 of 18
GFTLNEYGIS	VIYSDGRRTFYGDSVK	GRVAGTFDI	0.92	3 of 6	0 of 18
GFDLNEYGIS	VIYADGMRTAYVDSVK	GENAGTFDT	-0.02	6 of 6	0 of 18
GFDLNTYGIS	VIYSDGRRTAYQDSVK	GRAAGTFDS	-1.01	4 of 6	0 of 18
GFDLNSYGIS	VIYSDGRRTFYGDSVK	GRQAGRFIS	nd	0 of 6	0 of 18
GFDLNSYGIS	VIYSDGRRTFYCDSVK	GQTAGTFDS	0.56	6 of 6	0 of 18
GFTLNEYGIS	VIYSDGRRTFYGDDVK	GDAAFTFDV	1.01	6 of 6	0 of 18
GFELNSYGIS	VIYSDGRRTFYADSVK	GRWAGTFDS	0.75	5 of 6	0 of 18
GFDLDEYGIS	VIYADGMRTAYSDSVK	GQNAGTFDM	-0.59	6 of 6	0 of 18
GFDLDEYGIS	VIYADGMRTAYADSVK	GANAGTFDL	-0.92	6 of 6	0 of 18
GFTLNDYGIS	VIGSDGRRTVYGDSVK	GRAALTFIR	nd	0 of 6	0 of 18
GFSLNSYGIS	VIYSDGRRTFYKDQVK	GQTAGTFDS	0.58	5 of 6	0 of 18

A selection of 4 entries from above:

CDR-H1,CDR-H2,CDR-H3,mean log10 Kd (nM),replicates with signal,signal with controls
GFELNSYGIS,VIYSDGRRTFYDDSVK,GSTAGTFDS,-0.22,6 of 6,1 of 18
GFELNSYGIS,VIYSDGRRTFYADSVK,GRWAGTFDS,0.75,5 of 6,0 of 18
GFSLNNYGIS,VIYSDGKRTFYGDSVK,GQTAGTFDS,0.08,6 of 6,0 of 18
GFTLNEYGIS,VIYSDGRRTWYTDSVK,GRAAGTFDS,1.64,2 of 6,0 of 18